From patent US7262192B2, “Substituted pyrazolo[4,3-d]pyrimidines and their use as PDE-5 inhibitors” (Pfizer Inc., priority 2003, dated 2007) come the findings set out here.

Each structure is given as a SMILES string. Counter-ions that a name gives are not always drawn.

In this experiment the target is cGMP-specific PDE-5 (UniProt O76074). In words: PDE-5 inhibition, batch method or scintillation proximity assay. The format is biochemical, human. The conditions noted are these: activity against PDE-5; representative preferred compounds. The source says: The compounds of the invention are inhibitors of cyclic guanylate monophosphate (cGMP)-specific phosphodiesterase type 5 (PDE-5 inhibitors).
The required PDE enzymes can be isolated from a variety of sources, including human corpus cavernosum, human and rabbit platelets, human cardiac ventricle, human skeletal muscle and bovine retina, essentially by a modification of the method of Thompson, W J et al.; Biochemistry 18(23), 5228-5237, 1979, as described by Ballard S A et al.; J. Urology 159(6), 2164-2171, 1998. In particular, cGMP-specific PDE-5 and cGMP-inhibited cAMP PDE-3 can be obtained from human corpus cavernosum tissue, human platelets or rabbit platelets; cGMP-stimulated PDE-2 was obtained from human corpus cavernosum; calcium/calmodulin (Ca/CAM)-dependent PDE-1 from human cardiac ventricle; cAMP-specific PDE-4 from human skeletal muscle; and photoreceptor PDE-6 from bovine retina. Phosphodiesterases 7-11 can be generated from full length human recombinant clones transfected into SF9 cells. […]
On the technique in general: In a scintillation proximity assay essentially only radioactivity close to the scintillant gives light.

`COCc1nn(CCOCC(F)(F)F)c2c(Nc3cc(C)ccn3)nc(N3CCN[C@H](C)C3)nc12` [Example 253]: the 50% inhibitory concentration (IC50) was 1.2 nM. Then `CCOCCn1nc(COC)c2nc(N3CCN[C@H](C)C3)nc(Nc3cc(C)ccn3)c21` [Example 184, N-[1-(2-Ethoxyethyl)-3-methoxymethyl-5-((3R)-(3-methylpiperazin-1-yl))-1H-pyrazolo[4,3-d]pyrimidin-7-yl]-4-methylpyridin-2-ylamine dihydrochloride], with 2.94 nM.

Broadly, the IC50 is the concentration that inhibits the measured activity by half. Low readings indicate inhibition by little substance, high ones a need for much substance.
